# AlphaSeq binding of Ab-14 light chain variants to a spike HR2 peptide

The measurements come from Engelhart et al. 2022 (doi:10.1038/s41597-022-01779-4) through the FLAb antibody collection.

Binding partner: SARS-CoV-2 spike HR2 peptide, sequence PDVDLGDISGINAS.

Ab-14 is the parent antibody, in scFv form: VH, then three GGGGS repeats, then VL. The heavy chain is unchanged in all variants.
VH: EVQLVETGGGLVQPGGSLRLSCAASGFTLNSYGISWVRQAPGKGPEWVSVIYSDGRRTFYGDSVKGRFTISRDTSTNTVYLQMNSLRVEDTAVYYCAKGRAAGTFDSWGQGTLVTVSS
VL: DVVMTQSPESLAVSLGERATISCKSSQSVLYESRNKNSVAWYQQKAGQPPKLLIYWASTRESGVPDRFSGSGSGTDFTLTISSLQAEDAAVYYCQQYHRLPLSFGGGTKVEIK

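The parent was found by panning a naive human phage display library on the peptide. The library (AAYL50) carries one to three amino acid substitutions per variant, with no insertions or deletions. Affinity was read by AlphaSeq, a pooled yeast mating assay with surface-displayed partners. The frequency of each diploid, read from paired DNA barcodes, reflects how well the two displayed proteins bind. Scores were corrected for input abundance and mapped to Kd with protein pairs of known affinity run in the same pool. Mating was done three times.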

Positions count from residue 1 of the parent VL; S25E puts E in place of S.
Values are log10 of the apparent Kd in nM; lower means stronger binding.
"n.d." means that the variant was in the library but no mating with the target was seen in that replicate; the authors take this as a sign of poor binding, and no number exists.
In this assay the parent's reference entry averaged 0.65; its copy inside this library read 1.68.
As a blank, each scFv also met three strains without target: over library AAYL50, 18% of these pairings were detected, typically at 4.19 and seldom below 2.99. For each scFv, signals with the empty controls are counted beside the result, with their mean in brackets.

changes,log10 Kd (nM) by replicate,control signals
S25E/V29Q/A57N,n.d. n.d. n.d.,0/9
S28K/Y97E/L102S,n.d. n.d. n.d.,1/9 (2.70)
S28M/L30R/L100K,n.d. 3.13 4.98,3/9 (3.63)
Y31A/S38Y/S62F,2.88 3.62 2.47,1/9 (3.28)
V29C/Y31N/H98M,0.24 0.55 0.44,1/9 (3.99)
S25R/Y31G/L102W,0.94 1.45 1.30,0/9
E32N/R34W/N37L,n.d. n.d. n.d.,0/9
L102Q,n.d. 3.98 n.d.,0/9
S33G/Q96E/L100S,n.d. 4.13 n.d.,1/9 (3.20)
L30S/V39A/R99N,5.22 n.d. n.d.,3/9 (4.31)
S33P/E61N/L102K,1.78 1.55 2.04,0/9
A40C/L100A/P101E,n.d. 4.87 n.d.,6/9 (4.51)
S25C/R34W/S38D,5.41 3.63 n.d.,0/9
N35T/V39C,n.d. n.d. 4.34,1/9 (1.67)
N35R/A40C/S58W,n.d. n.d. n.d.,0/9
Y31E/E32N,0.55 0.57 0.32,0/9
S25K/S38A/P101W,1.28 1.24 1.30,4/9 (5.13)
S25T/K36F/V39N,4.21 4.90 5.02,2/9 (4.81)
S26F/S58D/Y97T,n.d. 4.25 n.d.,2/9 (4.41)
S25P/K36Q/A40D,6.00 4.30 n.d.,3/9 (4.70)
R34A/S62D/H98M,n.d. n.d. n.d.,0/9
N37A/L100C/P101D,1.22 1.49 1.48,1/9 (4.71)
S26A/Y31Q/E32A,1.13 1.19 1.29,0/9
R99E/L100W,n.d. 3.61 n.d.,3/9 (3.93)
S28W/S33T,2.67 3.29 n.d.,0/9
S25D/V29T/E61L,0.83 0.60 0.74,0/9
S28C/E32D/N37E,n.d. 3.30 n.d.,0/9
S28E/Y31P/P101M,n.d. n.d. n.d.,0/9
E32L/T59P/R99L,2.26 2.30 1.91,2/9 (3.66)
Q27Y/A40H,n.d. 3.68 n.d.,1/9 (3.88)
S26Q/V29Y/R34N,1.37 1.44 1.49,1/9 (4.46)
S28V/A57Y/R60A,4.16 4.58 n.d.,2/9 (3.91)
N35Y/N37A/S58D,2.25 1.93 2.30,1/9 (4.14)
R34C,1.78 1.95 2.08,1/9 (3.80)
S26F/V29A/V39Y,n.d. n.d. n.d.,1/9 (3.80)
K24I/E32C/L100A,n.d. n.d. n.d.,4/9 (3.81)
R60P/Y97E/S103Q,4.11 n.d. n.d.,0/9
S25I,-0.17 0.17 -0.06,6/9 (4.84)
S58T/R60Q/S103E,5.76 n.d. n.d.,1/9 (2.68)
L30M/S62Q/Y97F,1.61 1.76 1.94,0/9
N35D/E61R/Q95A,n.d. n.d. n.d.,0/9
K24F/E32F/W56T,n.d. n.d. 2.07,0/9
S28E/R60M/L100P,n.d. n.d. n.d.,1/9 (3.67)
S25F/V39W/S103M,2.90 n.d. 2.60,0/9
Q27A/K36T/L100G,n.d. n.d. n.d.,0/9
Q27M/S28I,2.87 2.58 4.10,1/9 (4.48)
N35V/T59S/S62K,4.56 3.35 2.99,2/9 (3.85)
N37I,2.14 2.53 2.31,2/9 (5.01)
Q27L/S33H/Q95W,3.48 n.d. n.d.,2/9 (4.34)
K36S/R60P/Q96I,n.d. 4.33 n.d.,1/9 (4.17)
S26H/L30E/S62L,0.32 0.59 0.44,0/9
S33R/W56K/E61P,n.d. n.d. 2.76,2/9 (3.41)

Picked from the list: the 8 lowest averages where every replicate gave a value.

changes,log10 Kd (nM) by replicate,control signals
S25I,-0.17 0.17 -0.06,6/9 (4.84)
V29C/Y31N/H98M,0.24 0.55 0.44,1/9 (3.99)
S26H/L30E/S62L,0.32 0.59 0.44,0/9
Y31E/E32N,0.55 0.57 0.32,0/9
S25D/V29T/E61L,0.83 0.60 0.74,0/9
S26A/Y31Q/E32A,1.13 1.19 1.29,0/9
S25R/Y31G/L102W,0.94 1.45 1.30,0/9
S25K/S38A/P101W,1.28 1.24 1.30,4/9 (5.13)